The results in this text go back to ChEMBL document CHEMBL2396608, “Thiazolylaminomannosides as potent antiadhesives of type 1 piliated Escherichia coli isolated from Crohn's disease patients” (J Med Chem, 2013).

By UniProt entry, the sequences of proteins in these tests, tags left out.
UniProt P08191, whole entry: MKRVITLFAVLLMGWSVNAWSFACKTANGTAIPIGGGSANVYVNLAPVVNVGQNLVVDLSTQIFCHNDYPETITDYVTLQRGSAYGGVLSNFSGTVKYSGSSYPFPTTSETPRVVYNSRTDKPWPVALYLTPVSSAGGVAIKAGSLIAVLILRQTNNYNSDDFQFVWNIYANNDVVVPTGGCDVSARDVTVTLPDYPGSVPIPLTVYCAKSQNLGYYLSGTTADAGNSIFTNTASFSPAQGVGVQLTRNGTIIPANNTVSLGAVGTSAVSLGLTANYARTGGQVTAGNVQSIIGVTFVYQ

For the assay, the target named is Type 1 fimbrin D-mannose specific adhesin (Escherichia coli K-12) (UniProt P08191). Nature of the assay: Binding affinity to Escherichia coli FimH assessed as decrease in RNaseB binding after 1 hr by competitive ELISA. The procedure, abridged: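 Wells coated with RNaseB in bicarbonate buffer pH 9.6, overnight at 4 °C. Blocked with 3% BSA in PBST, 2 h at 37 °C. Inhibitors in PBST plus FimH at 0.07 μM, 1 h at room temperature. Detection used rabbit anti-FimH (1:2500, 1 h), then HRP anti-rabbit (1:5000, 1 h), then TMB for 2–5 min in the dark, stopped with 1N H₂SO₄. Absorbance read at 450 nm.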
A general note: ELISA stands for enzyme-linked immunosorbent assay.

For the compound `CCCCCCCO[C@H]1O[C@H](CO)[C@@H](O)[C@H](O)[C@@H]1O`, the Activity result was “Dose-dependent effect”.
